The text below walks through data of ChEMBL document CHEMBL4024757, “Application of the Ugi Multicomponent Reaction in the Synthesis of Reactivators of Nerve Agent Inhibited Acetylcholinesterase” (2017).

Chains of the proteins cited; added tags and fusions are not shown. Residues count along the entry.
UniProt P22303, 32-614 limits assumed: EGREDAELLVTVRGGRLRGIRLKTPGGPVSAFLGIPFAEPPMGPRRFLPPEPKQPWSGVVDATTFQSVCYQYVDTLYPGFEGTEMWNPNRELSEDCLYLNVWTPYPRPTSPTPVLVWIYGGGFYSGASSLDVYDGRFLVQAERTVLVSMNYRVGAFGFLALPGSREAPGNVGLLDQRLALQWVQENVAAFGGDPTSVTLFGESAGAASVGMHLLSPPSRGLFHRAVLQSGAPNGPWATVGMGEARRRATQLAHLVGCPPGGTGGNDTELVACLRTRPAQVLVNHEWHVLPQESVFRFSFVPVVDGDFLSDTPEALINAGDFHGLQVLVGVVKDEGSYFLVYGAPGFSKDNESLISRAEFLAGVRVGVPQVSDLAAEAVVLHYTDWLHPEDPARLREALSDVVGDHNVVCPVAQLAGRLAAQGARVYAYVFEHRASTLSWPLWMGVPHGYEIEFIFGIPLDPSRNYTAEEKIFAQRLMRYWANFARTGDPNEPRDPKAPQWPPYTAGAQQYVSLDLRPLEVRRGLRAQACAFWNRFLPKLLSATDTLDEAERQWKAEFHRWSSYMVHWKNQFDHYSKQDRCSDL

Test [1] addresses T1, Acetylcholinesterase (Homo sapiens, UniProt P22303). The test can be described thus: Reactivation of VX inhibited human erythrocyte AChE using acetylthiocholine iodide as substrate preincubated up to 60 mins followed by substrate addition measured for 3 mins by Ellman's method.
For test [2], the target named is T1, Acetylcholinesterase. In words: Reactivation of sarin inhibited human erythrocyte AChE using acetylthiocholine iodide as substrate preincubated up to 60 mins followed by substrate addition measured for 3 mins by Ellman's method. (DTNB colorimetry detects thiols as they appear.)
For test [3], the target named is T1, Acetylcholinesterase. The test can be described thus: Reactivation of cyclosarin inhibited human erythrocyte AChE using acetylthiocholine iodide as substrate preincubated up to 60 mins followed by substrate addition measured for 3 mins by Ellman's method.

As usually defined, the Kd is a measure of binding affinity in units of concentration. For the compound `NC(=O)c1cc[n+](COC[n+]2ccc(/C=N/O)cc2)cc1`, the values for the Kd in test [1], in test [2] and in test [3] were 11.5 µM, 50.1 µM and 47.2 µM, respectively.
